Laboratory results reported in US20220274914A1, “TRICYCLIC DERIVATIVES AS HYPOXIA INDUCIBLE FACTOR-2(ALPHA) INHIBITORS” (NIKANG THERAPEUTICS, INC., priority 2019, published 2022).

Protein sequences, listed by entry. Tags and fused reporters are not part of them.
UniProt Q99814, whole entry: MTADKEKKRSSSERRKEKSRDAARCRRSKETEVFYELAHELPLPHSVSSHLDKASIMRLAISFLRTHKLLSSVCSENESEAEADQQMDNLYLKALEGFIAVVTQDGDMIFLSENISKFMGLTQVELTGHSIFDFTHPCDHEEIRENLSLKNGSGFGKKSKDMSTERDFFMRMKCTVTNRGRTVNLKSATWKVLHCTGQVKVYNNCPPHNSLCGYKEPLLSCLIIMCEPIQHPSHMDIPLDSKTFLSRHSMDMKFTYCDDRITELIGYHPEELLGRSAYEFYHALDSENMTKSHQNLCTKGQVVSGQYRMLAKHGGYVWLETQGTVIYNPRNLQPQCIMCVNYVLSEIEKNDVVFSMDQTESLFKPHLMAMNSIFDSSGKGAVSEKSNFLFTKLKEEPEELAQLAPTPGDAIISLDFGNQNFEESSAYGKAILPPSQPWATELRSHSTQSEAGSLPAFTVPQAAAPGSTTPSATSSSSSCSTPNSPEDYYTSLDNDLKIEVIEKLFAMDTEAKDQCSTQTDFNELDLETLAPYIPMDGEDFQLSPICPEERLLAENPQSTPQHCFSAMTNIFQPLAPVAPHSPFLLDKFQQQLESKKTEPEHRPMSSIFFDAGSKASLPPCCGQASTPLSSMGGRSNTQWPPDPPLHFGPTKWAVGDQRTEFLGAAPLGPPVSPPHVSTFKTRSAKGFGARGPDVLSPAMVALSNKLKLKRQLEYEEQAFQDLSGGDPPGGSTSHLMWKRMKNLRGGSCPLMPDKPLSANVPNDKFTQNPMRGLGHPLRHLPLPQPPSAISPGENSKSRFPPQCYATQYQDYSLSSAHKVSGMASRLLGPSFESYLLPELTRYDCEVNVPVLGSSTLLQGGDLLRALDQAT

target: HIF-2α (Homo sapiens, UniProt Q99814); assay: VEGF ELISA Assay; details: VEGF expression in 786-0 cells; VEGF in culture medium by ELISA; four parameter dose-response fit
Experimental: The ability of the disclosed compounds to inhibit HIF-2α was measured by determining VEGF expression in 786-0 cells. About 7500 786-0 cells were seeded into each well of a 96-well, white, clear bottom plate (07-200-566, Fisher Scientific) with 200 ul growth medium. Four hours later, compounds were dispensed into wells by Tecan D300e digital dispenser with starting concentration of 10 uM and […] of dilution down to 1 nM as final concentration. Each concentration of treatment was performed in duplicate. About 20 hours later, medium was removed and fresh medium was added, followed by compounds treatment as described above. 24 hours later, cell culture medium was collected to determine VEGF concentration using an ELISA kit (R&D systems, cat #DVE00) following the manufacturer's instruction.
The EC50 is calculated by GraphPad Prism using the dose-response-inhibition (four parameter) equation. The plate with cells was then subjected to CellTiter-Glo luminescence cell viability assay (Promega) to determine the effect of these compounds on cell numbers after the above treatment.

Compound | EC50 [nM]
N#Cc1cc(F)cc(Oc2ccc3c4c2C(F)CCC4(O)C(F)(F)C3(F)F)c1 (single isomer, unassigned) [other of 6a and 6b] | 4700
N#Cc1cc(F)cc(Oc2ccc3c4c2C(F)CCC4(O)C(F)(F)C3(F)F)c1 (single isomer, unassigned) [the other of 6-1 and 6-2] | 403
N#Cc1cc(F)cc(Oc2ccc3c4c2C(F)CCC4(O)C(F)(F)C3(F)F)c1 (single isomer, unassigned) [one of 6a and 6b] | 40
N#Cc1cc(F)cc(Oc2ccc3c4c2C(F)CCC4(O)C(F)(F)C3(F)F)c1 (single isomer, unassigned) [one of 6-1 and 6-2] | 35
